Assay results as given in article PMC3523752 (Journal of chemical information and modeling, 2012).

Amino acid sequences for entries named in this document (tags omitted). Residues count along the entry.
UniProt P56817, 46-501: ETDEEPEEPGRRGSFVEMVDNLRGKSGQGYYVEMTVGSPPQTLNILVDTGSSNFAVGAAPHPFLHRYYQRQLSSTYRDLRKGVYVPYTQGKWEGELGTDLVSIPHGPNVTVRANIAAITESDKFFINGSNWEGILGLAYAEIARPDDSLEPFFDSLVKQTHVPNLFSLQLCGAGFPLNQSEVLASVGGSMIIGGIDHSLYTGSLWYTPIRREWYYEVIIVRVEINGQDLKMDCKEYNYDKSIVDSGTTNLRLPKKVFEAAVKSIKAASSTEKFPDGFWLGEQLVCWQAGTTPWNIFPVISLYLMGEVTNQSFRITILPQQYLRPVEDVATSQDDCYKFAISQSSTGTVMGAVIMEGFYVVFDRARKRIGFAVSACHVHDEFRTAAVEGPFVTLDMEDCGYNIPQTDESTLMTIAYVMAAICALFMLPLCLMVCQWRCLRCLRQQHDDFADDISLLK

Columns and labels:
BACE-1 [1] = target: T1, BACE-1 (Homo sapiens, UniProt P56817); experiment: BACE-1 FRET inhibition assay, method b; type: biochemical; details: standard inhibitors
BACE-1 [2] = target: T1, BACE-1; experiment: BACE-1 FRET inhibition assay, method a; type: biochemical; details: standard inhibitors

potency (BACE-1 inhibition) (BACE-1 [1]): nanomolar potencies
potency (BACE-1 inhibition) (BACE-1 [2]): nanomolar potencies
Substance: OM99-2
